# Results taken from paper PMC6646369, “A new bioavailable fenretinide formulation with antiproliferative, antimetabolic, and cytotoxic effects on solid tumors” (Cell Death & Disease, 2019).
# System: LCSC6 lung cancer spheroid cells
# Experiment: Cell viability assay (CellTiter-Glo)
# Format: cell-based, human
# Conditions: LCSC6, 48 hours; SA 2, 4, 6 µM; GT11 0,5, 2, 5 µM
# Method: Cell viability upon treatment with NanoFEN, zVAD, NAC, 3-MA, Myriocin, PPMP, GT11, SA and Rapamycin was determined by CellTiter-Glo luminescent cell viability assay (Promega, Madison, WI, USA) according to the manufacturer’s directions. Briefly, lung and colorectal spheroids were dissociated mechanically or with TrypLE Express (Thermo Fisher Scientific) respectively and seeded 3 × 10^3 per well in 96-well plates (three replicates per experimental point) in serum-free medium, and incubated in a humidified atmosphere at 37 °C, 5% CO2. Cells were treated with the respective compounds and analysed after the appropriate time period as described in detail in Figure Legends. Luminescence was detected with a DTX880 multimode microplate reader (Beckman Coulter, Brea, CA, USA).
smiles,measurement,value
"CCCCCCCCCCCCCC1=C([C@H](O)[C@@H](CO)NC(=O)CCCCCCC)C1 [GT11, N-[(1R,2S)-2-hydroxy-1-hydroxymethyl-2-(2-tridecyl-1-cyclopropenyl)ethyl]octanamide]",cell viability,dose-dependent viability decrease
